Tested on: latent HIV-1 in Bcl-2-transduced resting CD4+ T cells
Format: cell-based
Details: 24-72 h, average of two donors

SMILES: CCNC(=O)C[C@@H]1N=C(c2ccc(Cl)cc2)c2cc(OC)ccc2-n2c(C)nnc21 [I-Bet, (S)-2-(6-(4-chlorophenyl)-8-methoxy-1-methyl-4H-benzo[f][1,2,4]triazolo[4,3-a][1,4]diazepin-4-yl)-N-ethylacetamide]
- reactivation of latent HIV-1 relative to costimulation with αCD3 and αCD28 antibodies: same activation

Source: patent US20150133434A1, “Compositions and Methods for Reactivating Latent Immunodeficiency Virus” (priority 2012, published 2015)
